Test results reported in BindingDB's records for patent US20240294545 (Cspc Zhongqi Pharmaceutical Technology (Shijiazhuang), 2024).

Chains of the proteins cited; added tags and fusions are not shown. Lines headed by an entry give the natural chain unless they say otherwise; changes in a name come on top.
UniProt Q13315: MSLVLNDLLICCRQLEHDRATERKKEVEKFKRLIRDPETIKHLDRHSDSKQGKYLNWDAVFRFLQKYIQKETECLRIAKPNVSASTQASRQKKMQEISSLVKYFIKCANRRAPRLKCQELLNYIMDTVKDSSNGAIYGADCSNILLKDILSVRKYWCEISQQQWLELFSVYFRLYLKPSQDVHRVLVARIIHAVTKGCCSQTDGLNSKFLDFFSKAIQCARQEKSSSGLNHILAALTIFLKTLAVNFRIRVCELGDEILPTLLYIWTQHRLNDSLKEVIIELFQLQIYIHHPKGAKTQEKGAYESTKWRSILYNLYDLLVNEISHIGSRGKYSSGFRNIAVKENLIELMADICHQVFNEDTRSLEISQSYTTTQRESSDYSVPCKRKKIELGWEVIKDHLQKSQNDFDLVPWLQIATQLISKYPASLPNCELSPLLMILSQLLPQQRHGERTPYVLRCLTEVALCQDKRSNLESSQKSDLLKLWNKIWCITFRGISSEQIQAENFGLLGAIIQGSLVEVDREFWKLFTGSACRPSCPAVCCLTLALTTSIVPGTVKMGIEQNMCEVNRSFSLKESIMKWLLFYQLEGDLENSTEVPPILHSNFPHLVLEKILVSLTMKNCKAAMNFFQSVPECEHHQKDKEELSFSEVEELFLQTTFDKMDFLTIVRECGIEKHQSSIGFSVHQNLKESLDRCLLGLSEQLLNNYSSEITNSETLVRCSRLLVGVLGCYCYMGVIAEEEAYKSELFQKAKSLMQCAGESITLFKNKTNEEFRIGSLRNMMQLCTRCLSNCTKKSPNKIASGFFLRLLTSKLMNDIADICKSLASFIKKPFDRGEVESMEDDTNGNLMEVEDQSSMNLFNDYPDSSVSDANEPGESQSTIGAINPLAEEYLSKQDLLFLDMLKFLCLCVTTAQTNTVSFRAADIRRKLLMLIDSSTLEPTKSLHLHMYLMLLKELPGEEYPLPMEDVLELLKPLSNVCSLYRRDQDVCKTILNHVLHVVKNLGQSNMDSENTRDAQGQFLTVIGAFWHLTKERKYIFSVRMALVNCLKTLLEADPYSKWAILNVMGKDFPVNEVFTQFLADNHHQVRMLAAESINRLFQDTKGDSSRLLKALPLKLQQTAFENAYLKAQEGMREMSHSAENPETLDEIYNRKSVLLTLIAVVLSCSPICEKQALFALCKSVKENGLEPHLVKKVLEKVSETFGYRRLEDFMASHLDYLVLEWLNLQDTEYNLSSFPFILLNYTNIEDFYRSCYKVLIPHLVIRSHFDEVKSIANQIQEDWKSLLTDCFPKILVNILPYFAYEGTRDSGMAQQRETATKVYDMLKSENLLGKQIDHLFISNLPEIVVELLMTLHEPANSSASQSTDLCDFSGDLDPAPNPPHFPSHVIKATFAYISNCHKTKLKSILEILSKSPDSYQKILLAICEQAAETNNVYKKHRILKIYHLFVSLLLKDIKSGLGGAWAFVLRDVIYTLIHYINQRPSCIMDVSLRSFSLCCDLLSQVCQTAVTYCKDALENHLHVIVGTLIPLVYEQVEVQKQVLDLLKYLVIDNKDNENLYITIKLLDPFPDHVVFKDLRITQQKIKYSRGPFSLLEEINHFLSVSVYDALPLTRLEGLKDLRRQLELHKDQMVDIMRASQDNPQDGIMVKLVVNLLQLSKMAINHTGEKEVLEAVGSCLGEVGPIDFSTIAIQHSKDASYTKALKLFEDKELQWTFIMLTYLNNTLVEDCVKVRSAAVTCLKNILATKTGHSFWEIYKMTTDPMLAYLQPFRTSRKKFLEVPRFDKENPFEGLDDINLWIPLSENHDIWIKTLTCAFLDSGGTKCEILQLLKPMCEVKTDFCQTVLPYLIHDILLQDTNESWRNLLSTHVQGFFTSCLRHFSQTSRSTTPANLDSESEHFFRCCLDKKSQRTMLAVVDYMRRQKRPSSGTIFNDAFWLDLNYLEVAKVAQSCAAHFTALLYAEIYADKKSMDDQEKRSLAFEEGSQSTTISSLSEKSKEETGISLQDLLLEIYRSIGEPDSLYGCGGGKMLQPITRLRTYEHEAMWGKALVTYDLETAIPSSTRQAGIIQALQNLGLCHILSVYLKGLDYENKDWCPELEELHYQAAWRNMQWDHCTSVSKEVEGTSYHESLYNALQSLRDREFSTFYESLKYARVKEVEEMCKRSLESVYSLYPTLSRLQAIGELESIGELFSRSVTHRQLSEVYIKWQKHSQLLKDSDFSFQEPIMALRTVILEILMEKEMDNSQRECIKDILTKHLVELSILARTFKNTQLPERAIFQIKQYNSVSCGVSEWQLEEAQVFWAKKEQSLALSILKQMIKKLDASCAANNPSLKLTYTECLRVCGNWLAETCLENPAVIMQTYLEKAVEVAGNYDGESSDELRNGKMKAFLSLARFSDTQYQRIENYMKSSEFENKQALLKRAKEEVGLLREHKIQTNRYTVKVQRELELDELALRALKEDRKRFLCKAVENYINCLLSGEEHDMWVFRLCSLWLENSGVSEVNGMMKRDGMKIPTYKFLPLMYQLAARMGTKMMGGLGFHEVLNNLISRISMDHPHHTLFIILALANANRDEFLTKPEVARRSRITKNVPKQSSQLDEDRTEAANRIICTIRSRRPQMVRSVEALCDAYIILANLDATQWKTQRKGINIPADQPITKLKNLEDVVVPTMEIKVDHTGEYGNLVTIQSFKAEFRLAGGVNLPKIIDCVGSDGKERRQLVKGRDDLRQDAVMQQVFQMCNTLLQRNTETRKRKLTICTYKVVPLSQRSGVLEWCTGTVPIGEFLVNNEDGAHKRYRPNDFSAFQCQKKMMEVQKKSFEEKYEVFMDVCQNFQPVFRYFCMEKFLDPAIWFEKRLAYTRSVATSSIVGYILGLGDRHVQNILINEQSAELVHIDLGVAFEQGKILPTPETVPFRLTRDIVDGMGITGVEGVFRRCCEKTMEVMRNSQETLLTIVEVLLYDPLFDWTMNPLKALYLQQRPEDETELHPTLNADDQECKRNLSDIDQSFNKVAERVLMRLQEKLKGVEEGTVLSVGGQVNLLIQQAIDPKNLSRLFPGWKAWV

Biological target: Serine-protein kinase ATM (Homo sapiens, UniProt Q13315)
Experiment: Inhibitory Activities of Compounds on ATM
Description: (1) Preparation of 1× kinase basal buffer and reaction termination solution1) 1× kinase basal buffer50 mM HEPES, pH 7.50.0015% Brij-35 (polyoxyethylene lauryl ether)100 mM Na3VO45 M NaCl1 M MgCl21 M MnCl22) Reaction termination solution100 mM HEPES, pH 7.50.015% Brij-350.2% Coating Reagent #350 mM EDTA(2) Preparation of test compound1) Dissolution and dilution of compound: a compound was dissolved into DMSO to yield a 10 mM or 5 mM stock solution. To a 96-well plate, 98 μL of DMSO and 2 μL of the 10 mM stock solution were added and mixed evenly so that the concentration of the solution was 200 μM. […]

IC50: 590 pM
Structure (SMILES): CN1CCN(CCCOc2ccc(-c3c(F)cc4ncc5c6c4c3OCC3(CCC3)n6c(=O)n5C)cn2)CC1 [US20240294545, Compound A-164]
